Entries after “also recorded” stand apart in the source; their conditions may differ.
Tested on: HEK 293 cells co-expressing MOR1 and GRPR
Assay: Calcium imaging, cells co-expressing MOR1 and GRPR
Format: cell-based, mouse

## CN1CC[C@]23c4c5ccc(O)c4O[C@H]2[C@@H](O)C=C[C@H]3[C@H]1C5 [morphine]
  calcium response to agonist: failed to evoke Ca2+ spikes; also recorded: unable to respond to morphine
